{
  "source": "patent US20090221708A1",
  "about": "“Medicinal preparation” (priority 2004, published 2009)",
  "test_system": "hepatitis C",
  "conditions": "human, in vivo",
  "data": [
    {"smiles": "Cc1cc(Cl)ccc1OCC(=O)O", "note": "[4-chlorine-2-methyl phenoxyacetic acid]", "values": [
      {"measurement": "BKS", "value": 24, "unit": "mm/h"},
      {"measurement": "Creatine", "value": 0.35, "unit": "mg/dL"},
      {"measurement": "Eosinophiles", "value": 4.0, "unit": "%"},
      {"measurement": "Erythrocytes", "value": "4.3 1 × 10^12/l"},
      {"measurement": "Glucose", "value": 5.9, "unit": "mmol/L"},
      {"measurement": "Haemoglobin", "value": 123, "unit": "g/L"},
      {"measurement": "Haemoglobin index", "value": 1.0},
      {"measurement": "Leucocytes", "value": "4.7 1 × 10^9/l"},
      {"measurement": "Lymphocytes", "value": 23, "unit": "%"},
      {"measurement": "Monocytes", "value": 4.0, "unit": "%"},
      {"measurement": "Neutrophiles: Segment core", "value": 68, "unit": "%"},
      {"measurement": "Neutrophiles: Standard bar core", "value": 4.9, "unit": "%"},
      {"measurement": "Potassium", "value": 4.2, "unit": "mmol/L"},
      {"measurement": "Protein", "value": 7.1, "unit": "g/dL"},
      {"measurement": "Sodium", "value": 143, "unit": "mmol/L"},
      {"measurement": "Thrombocytes, absolute", "value": 127, "unit": "Tsd."},
      {"measurement": "Urea", "value": 44.0, "unit": "mg/dL"},
      {"measurement": "Uric acid", "value": 6.8, "unit": "mg/dL"}
    ]}
  ]
}
